The values that follow come from US8772480B2, “Inhibitors of PI3 kinase and/or mTOR” (priority 2009, dated 2014).

The structures appear in SMILES notation. A value given as a limit tells only on which side of the number the result lay.

For this assay, the target named is mammalian target of rapamycin (mTOR) (Homo sapiens (Human), UniProt P42345). To be noted: read-out: mTOR IC50.
Consider `Cc1nc(N)cc(-c2cnccc2Nc2cccc3[nH]ccc23)n1` [Example 109, N-(3-(6-amino-2-methylpyrimidin-4-yl)pyridin-4-yl)-1H-indol-4-amine], for which the IC50 was more than 50000 nM.
To `COc1ccc(Nc2ncc(CN3CCN(C(C)=O)CC3)cc2-c2nc(C)nc3[nH]cnc23)cn1` [Example 89, 1-(4-((6-(6-methoxypyridin-3-ylamino)-5-(2-methyl-9H-purin-6-yl)pyridin-3-yl)methyl)piperazin-1-yl)ethanone] belongs 612 nM.
For `COc1ccc(Nc2cnccc2-c2nc(C)nc(N)n2)cn1` [Example 115, 4-(3-(6-methoxypyridin-3-ylamino)pyridin-4-yl)-6-methyl-1,3,5-triazin-2-amine], the IC50 was more than 10000 nM.
The value for `Cc1nc(N)nc(-c2cccnc2Nc2ccc3c(c2)OC(F)(F)O3)n1` [Example 168, 4-(2-(2,2-Difluorobenzo[D][1,3]Dioxol-5-Ylamino)Pyridin-3-yl)-6-Methyl-1,3,5-Triazin-2-Amine] was more than 10000 nM.
To `COc1ccc(Nc2ncc(CN3CCOCC3=O)cc2-c2nc(C)nc(N)n2)cn1` [Example 154, 4-((5-(4-Amino-6-Methyl-1,3,5-Triazin-2-yl)-6-((6-Methoxy-3-Pyridinyl)Amino)-3-Pyridinyl)Methyl)-3-Morpholinone] belongs 3030 nM; to `COc1ccc(Nc2ncc(CNCc3cccnc3)cc2-c2nc(C)nc3[nH]cnc23)cn1` [Example 138, N-(6-methoxypyridin-3-yl)-3-(2-methyl-9H-purin-6-yl)-5-((pyridin-3-ylmethylamino)methyl)pyridin-2-amine], 1400 nM; to `COc1ncc(Nc2ncccc2-c2nc(C)nc(N)n2)cc1Cl` [Example 173, 4-(2-(5-Chloro-6-Methoxypyridin-3-Ylamino)Pyridin-3-yl)-6-Methyl-1,3,5-Triazin-2-Amine], more than 10000 nM.
As for `Cc1nc(N)nc(-c2cc([C@@H](C)N3CCN(S(C)(=O)=O)C[C@@H]3C)cnc2Nc2ccc(Cl)nc2)n1` [Example 363, 4-(2-(6-Chloropyridin-3-Ylamino)-5-((R)-1-((S)-2-Methyl-4-(Methylsulfonyl)Piperazin-1-yl)Ethyl)Pyridin-3-yl)-6-Methyl-1,3,5-Triazin-2-Amine], the IC50 is more than 10000 nM.
On to `COc1ncc(Nc2ncc(CN3CCN(C(=O)N(C)C)CC3)cc2-c2nc(C)nc(N)n2)cc1F` [Example 159, 4-((5-(4-Amino-6-Methyl-1,3,5-Triazin-2-yl)-6-(5-Fluoro-6-Methoxypyridin-3-Ylamino)Pyridin-3-yl)Methyl)-N,N-Dimethylpiperazine-1-Carboxamide], for which the IC50 was more than 10000 nM.
To `COc1ccc(Nc2ncc(CN3CCN(S(C)(=O)=O)CC3)cc2-c2nc(C)nc3[nH]cnc23)cn1` [Example 85, N-(6-methoxypyridin-3-yl)-3-(2-methyl-9H-purin-6-yl)-5-((4-(methylsulfonyl)piperazin-1-yl)methyl)pyridin-2-amine] belongs more than 10000 nM; to `Cc1nc(N)nc(-c2cc([C@@H](C)N3CCN(S(C)(=O)=O)CC3)cnc2Nc2ccc3cccnc3c2)n1` [Example 310, (R)—N-(3-(4-amino-6-methyl-1,3,5-triazin-2-yl)-5-(1-(4-(methylsulfonyl)piperazin-1-yl)ethyl)pyridin-2-yl)quinolin-7-amine 2,2,2-trifluoroacetate], 127 nM; to `COc1ncc(Nc2ncc(C(OC(=O)c3cccc(Cl)c3)C(C)(C)O)cc2-c2nc(C)nc(N)n2)cc1F` (stereo not shown) [Example 351, 1-(5-(4-Amino-6-Methyl-1,3,5-Triazin-2-yl)-6-(5-Fluoro-6-Methoxypyridin-3-Ylamino)Pyridin-3-yl)-2-Hydroxy-2-Methylpropyl 3-Chlorobenzoate], more than 10000 nM.
Regarding `COCCOc1cnc(Nc2cnc(OC)c(NS(C)(=O)=O)c2)c(-c2nc(C)nc(N)n2)c1` [Example 336, N-(5-(3-(4-Amino-6-Methyl-1,3,5-Triazin-2-yl)-5-(2-Methoxyethoxy)Pyridin-2-Ylamino)-2-Methoxypyridin-3-yl)Methanesulfonamide], the IC50 was 1420 nM.
To `Cc1nc(N)nc(-c2cc(CN3CCOCC3)cnc2Nc2cnc(Cl)c(NS(C)(=O)=O)c2)n1` [Example 332, N-(5-(3-(4-Amino-6-Methyl-1,3,5-Triazin-2-yl)-5-(Morpholinomethyl)Pyridin-2-Ylamino)-2-Chloropyridin-3-yl)Methanesulfonamide] belongs 154 nM; to `COc1ccc(Nc2ncc(-c3cn[nH]c3)cc2-c2nc(C)nc(N)n2)cn1` [Example 250, 4-(2-(6-Methoxypyridin-3-Ylamino)-5-(1H-Pyrazol-4-yl)Pyridin-3-yl)-6-Methyl-1,3,5-Triazin-2-Amine], more than 10000 nM.
As for `COc1ccc(Nc2nc3ccccc3cc2-c2nc(C)nc3[nH]cnc23)cn1` [Example 113, N-(6-Methoxypyridin-3-yl)-3-(2-Methyl-9H-Purin-6-yl)Quinolin-2-Amine], the IC50 was more than 10000 nM.
For the compound `COc1ccc(Nc2ncc(C(C)(C)N3CCN(S(C)(=O)=O)CC3)cc2-c2nc(C)nc(N)n2)cn1` [Example 279, 4-(2-(6-Methoxypyridin-3-Ylamino)-5-(2-(4-(Methylsulfonyl)Piperazin-1-yl)Propan-2-yl)Pyridin-3-yl)-6-Methyl-1,3,5-Triazin-2-Amine], the IC50 was 1780 nM.
To `Cc1nc(N)nc(-c2cccnc2Nc2ccc(NC(=O)NC(C)C)nc2)n1` [Example 192, 1-(5-(3-(4-Amino-6-Methyl-1,3,5-Triazin-2-yl)Pyridin-2-Ylamino)Pyridin-2-yl)-3-Isopropylurea] belongs more than 10000 nM.
For `COc1ccc(Nc2ncccc2-c2nc(C)nc(N)n2)cn1` [Example 25, 4-(2-(6-Methoxypyridin-3-Ylamino)Pyridin-3-yl)-6-Methyl-1,3,5-Triazin-2-Amine], the IC50 amounted to 7730 nM.
On to `Cc1nc(N)cc(-c2cccnc2Nc2cccc3[nH]ncc23)n1` [Example 27, N-(3-(6-Amino-2-Methylpyrimidin-4-yl)Pyridin-2-yl)-1H-Indazol-4-Amine], for which the IC50 was more than 50000 nM.
The value for `COc1ccc(CNc2cnc(Nc3ccc(OC)nc3)c(-c3nc(C)nc4[nH]cnc34)c2)cc1` [Example 95, N5-(4-methoxybenzyl)-N2-(6-methoxypyridin-3-yl)-3-(2-methyl-9H-purin-6-yl)pyridine-2,5-diamine] was more than 10000 nM; that for `Cc1nc(N)nc(-c2cc(Cl)cnc2Nc2cnc(C)c(NS(C)(=O)=O)c2)n1` [Example 378, N-(5-(3-(4-Amino-6-Methyl-1,3,5-Triazin-2-yl)-5-Chloropyridin-2-Ylamino)-2-Methylpyridin-3-yl)Methanesulfonamide] was more than 10000 nM; that for `Cc1nc(N)nc(-c2cc(Cl)cnc2NC2CCOCC2)n1` [Example 188, 4-(5-Chloro-2-(Tetrahydro-2H-Pyran-4-Ylamino)Pyridin-3-yl)-6-Methyl-1,3,5-Triazin-2-Amine] was more than 10000 nM.
To `Cc1nc(N)nc(-c2cc(CN3CCN(S(C)(=O)=O)CC3)cnc2Nc2cccc(O)c2)n1` [Example 30, 3-(3-(4-Amino-6-Methyl-1,3,5-Triazin-2-yl)-5-((4-(Methyl Sulfonyl)Piperazin-1-yl)Methyl)Pyridin-2-Ylamino)Phenol] belongs 178 nM; to `COc1ccc(Nc2ncc(Cl)cc2-c2nc(C)nc3[nH]cnc23)cn1` [Example 127, 5-chloro-N-(6-methoxypyridin-3-yl)-3-(2-methyl-9H-purin-6-yl)pyridin-2-amine], more than 10000 nM.
To `CC(=O)Nc1ccc(Nc2ncc(Cl)cc2-c2nc(C)nc(N)n2)cc1F` [Example 266, N-(4-(3-(4-Amino-6-Methyl-1,3,5-Triazin-2-yl)-5-Chloropyridin-2-Ylamino)-2-Fluorophenyl)Acetamide] belongs 463 nM; to `COc1ncc(Nc2ncc([C@@H](C)N3CCOCC3)cc2-c2nc(C)nc(N)n2)cc1F` (single isomer, unassigned) [Example 291], more than 10000 nM; to `Cc1nc(N)nc(-c2cc([C@H](C)N3CCOCC3)cnc2Nc2cnc(Cl)c(NS(=O)(=O)N(C)C)c2)n1` [Example 374, (S)—N-(5-(3-(4-Amino-6-Methyl-1,3,5-Triazin-2-yl)-5-(1-Morpholinoethyl)Pyridin-2-Ylamino)-2-Chloropyridin-3-yl)-N,N-Dimethylaminosulfamide], 388 nM.
With `COc1ncc(Nc2ncc(C(O)C(F)(F)F)cc2-c2nc(C)nc(N)n2)cc1F` (stereo not shown) [Example 314, 1-(5-(4-Amino-6-Methyl-1,3,5-Triazin-2-yl)-6-(5-Fluoro-6-Methoxypyridin-3-Ylamino)Pyridin-3-yl)-2,2,2-Trifluoroethanol], the IC50 was found to be 2230 nM.
The value for `Cc1nc(N)nc(-c2cc(CN3CCN(S(C)(=O)=O)CC3)cnc2Nc2cn[nH]c2)n1` [Example 243, 4-(2-(1H-Pyrazol-4-Ylamino)-5-((4-(Methylsulfonyl)Piperazin-1-yl)Methyl)Pyridin-3-yl)-6-Methyl-1,3,5-Triazin-2-Amine] was 1750 nM.
The value for `COc1ccc(Nc2ncc(CNCc3ccccn3)cc2-c2nc(C)nc3[nH]cnc23)cn1` [Example 136, N-(6-methoxypyridin-3-yl)-3-(2-methyl-9H-purin-6-yl)-5-((pyridin-2-ylmethylamino)methyl)pyridin-2-amine] was 556 nM; that for `COc1ccc(Nc2nc(N3CCCCC3)ncc2-c2nc(C)nc(N)n2)cn1` [Example 123, 4-(4-(6-methoxypyridin-3-ylamino)-2-(piperidin-1-yl)pyrimidin-5-yl)-6-methyl-1,3,5-triazin-2-amine] was more than 10000 nM.
Turning to `COc1ncc(Nc2ncc([C@H](C)N3CCOCC3)cc2-c2cc(N)nc(C)n2)cc1F` [Example 275, 6-(2-((5-Fluoro-6-Methoxy-3-Pyridinyl)Amino)-5-((1S)-1-(4-Morpholinyl)Ethyl)-3-Pyridinyl)-2-Methyl-4-Pyrimidinamine], the IC50 was more than 10000 nM.
Turning to `COc1ncc(Nc2ncc(C3=CCOCC3)cc2-c2nc(C)nc(N)n2)cc1F` [Example 343, 4-(5-(3,6-Dihydro-2H-Pyran-4-yl)-2-(5-Fluoro-6-Methoxypyridin-3-Ylamino)Pyridin-3-yl)-6-Methyl-1,3,5-Triazin-2-Amine], the IC50 is more than 10000 nM.
